The results in this text go back to patent US10294256B2, “Phosphine oxide alkyl amide substituted heteroaryl compounds as modulators of IL-12, IL-23 and/or IFN alpha responses” (BRISTOL-MYERS SQUIBB COMPANY, priority 2016, dated 2019).

Sequences of proteins named here, by UniProt entry; tags and fusion partners are left off. A line that says so, or that is headed by a name, gives the form on record, which may keep a tag or linker. Residues count along the entry.
UniProt P29597, 575-869 with tags or gaps: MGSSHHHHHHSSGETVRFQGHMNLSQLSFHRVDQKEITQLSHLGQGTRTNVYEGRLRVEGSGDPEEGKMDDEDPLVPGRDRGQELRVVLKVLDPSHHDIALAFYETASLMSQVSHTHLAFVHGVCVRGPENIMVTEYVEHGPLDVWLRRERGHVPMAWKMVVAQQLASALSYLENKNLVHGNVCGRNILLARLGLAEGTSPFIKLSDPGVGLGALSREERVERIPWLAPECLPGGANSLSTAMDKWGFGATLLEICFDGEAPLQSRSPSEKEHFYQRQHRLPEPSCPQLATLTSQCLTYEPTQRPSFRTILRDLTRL

In assay [1] the target is recombinant human His-tagged Tyk2 pseudokinase domain (His-TVMV-Tyk2, 575-869) (Homo sapiens, UniProt P29597). Description: Probe Displacement Assay (HTRF Format). Conditions: read-out: Binding IC50, 0.5 nM Tyk2 pseudokinase domain, 1 h room temperature.
The test system of assay [2] is IL-23 stimulated Kit225 T cells with STAT-dependent luciferase reporter. Description: Kit225 T Cell Assay, IL-23 stimulated STAT-dependent luciferase reporter. Conditions: read-out: IL23 Kit 225 IC50, 20 ng/mL human recombinant IL-23, 5-6 hours. Here is the method: (§1) Kit225 T cells with a stably-integrated STAT-dependent luciferase reporter were plated in RPMI (Gibco) containing 10% heat-inactivated FBS (Gibco) and 100 U/mL PenStrep (Gibco). The cells were then stimulated with either 20 ng/mL human recombinant IL-23 or 200 U/mL human recombinant IFNα (PBL InterferonSource) for 5-6 hours. Luciferase expression was measured using the STEADY-GLO® Luciferase Assay System (Promega) according to the manufacturer's instructions. Inhibition data were calculated by comparison to no inhibitor control wells for 0% inhibition and non-stimulated control wells for 100% inhibition. Dose response curves were generated to determine the concentration required to inhibit 50% of cellular response (IC50) as derived by non-linear regression analysis.
(In general: Reporter assays use an easily measured gene product as a stand-in for the process of interest.)

In assay [3] the test system is IFNα stimulated Kit225 T cells with STAT-dependent luciferase reporter. Description: Kit225 T Cell Assay, IFNα stimulated STAT-dependent luciferase reporter. Particulars: read-out: IFN[…] Kit 225 IC50, 200 U/mL human recombinant IFNα, 5-6 hours. Here is the method: as §1

On to `[2H]C([2H])([2H])NC(=O)c1nnc(Nc2ccc(-c3c(F)cccc3F)cn2)cc1Nc1ncccc1P(C)(C)=O`, for which the IC50 in assay [1] was 0.48 nM; in assay [2], 428 nM; in assay [3], 402 nM.
